Assay results taken from publication PMC9541285, “Drug‐dependent inhibition of nucleotide hydrolysis in the heterodimeric ABC multidrug transporter PatAB from Streptococcus pneumoniae” (The Febs Journal, 2022).

Tested on: Nc1ncnc2c1ncn2[C@@H]1O[C@H](COP(=O)(O)OP(=O)(O)OP(=O)(O)O)[C@@H](O)[C@H]1O
Assay: purified protein
Details: 10 mM MgCl2, pH 7.0, 30 °C, DDM, no drug

PatAB (PatA^WTB^WT) (Streptococcus pneumoniae)
Km: 3000 ± 900 µM
